Source: paper PMC7041944 (eLife, 2020)
Where a name gives a salt, the structure may show the parent alone.

System: MOR
Format: cell-based, murine

C=CCN1CC[C@]23c4c5ccc(O)c4O[C@H]2C(=O)CC[C@@]3(O)[C@H]1C5 [naloxone, Naloxone hydrochloride dihydrate]
reversal of DAMGO-induced mGsi recruitment by MOR antagonist: rapidly reversed
